# Assay results reported in patent US20140328940A1, “MODULATION OF AXON DEGENERATION” (Genentech, Inc., priority 2009, published 2014).
# “Also recorded” adds a separate entry of the source.
# Assays:
# [1] = test system: cerebellar granule neurons (CGNs); test: serum deprivation/KCl reduction degeneration of cerebellar granule neurons; type: cell-based, mouse
# [2] = test system: DRG neurons (axon vs. cell body compartment); test: Campenot chamber local axon degeneration (anti-NGF in axon compartment); type: cell-based, mouse
# Experimental: Teflon dividers (Tyler Research) were cleaned by washing in water and wiping them clean of any residual grease. Dividers were then soaked in Nochromix (Godax Laboratories)/sulfuric acid overnight, rinsed five times in distilled and autoclaved water (SQ water), boiled for 30 minutes, and then air-dried before use
# Mouse laminin (5 μg/ml in sterile filtered water; Invitrogen) was added to PDL coated 35 mm dishes (BD Biosciences) and they were incubated for 1 hour at 37° C., followed by two rinses in SQ water. The dishes were vacuum-dried and then air-dried in a laminar flow hood for 15 minutes. Prepared dishes were then scored with a pin rake (Tyler Research). […] High vacuum grease (VWR) was added to each Teflon divider under a dissection scope. The laminin coated PDL dishes were inverted and dropped onto the Teflon divider, with additional pressure added by use of a toothpick in the non-track-containing regions. Dishes were incubated for 1 hour at 37° C. Five hundred microliters of NBM+MC (50 ng/ml NGF) solution was added to each of the side compartments, and a grease barrier was added in front of the center cell slot.
# Free E13.5 spinal cords were dissected from mouse embryos and placed into NBM+MC (25 ng/ml NGF) solution. DRGs were detached from the spinal cord with a tungsten needle. An NBM+MC-lubricated P200 pipette was used to move DRGs into a 1.5 ml tube. DRGs were pelleted with a tabletop centrifuge for 30 seconds. The supernate was discarded and 0.05% Trypsin/EDTA (cold) was added. The pellet was resolubilized with a pipette and incubated at 37° C. for 15 minutes with constant agitation (650 RPM). The sample was again centrifuged and the supernate discarded. […]
# After 28 hours of anti-NGF antibody treatment, 8% PFA/30% sucrose solution (see above) was added directly to the culture medium at a 1:1 dilution and incubated for 30 minutes. […] The neurons were visualized by use of a fluorescence microscope. […]
smiles,measurement,setting,value
O=C1NC(=O)C(c2ccccc2[N+](=O)[O-])=C1Nc1ccc(O)c(Cl)c1 [SB415286],protection of cerebellar granule neurons from serum deprivation/KCl reduction,[1],protect
same,Axon Compartment (protection of NGF-deprived axons),[2],failed to prevent degeneration; also recorded: No (5)
same,Cell Body Compartment (protection of NGF-deprived axons),[2],did not degenerate; also recorded: protected from local degeneration; also recorded: Yes (5)
same,formation of varicosities in locally NGF-deprived axons,[2],"large number of axons with varicosities, as well as fragmented axons"
